Key:
Assay type in all cases: cell-based
[1] = biological target: Delta-type opioid receptor (Homo sapiens, UniProt P41143); test: Displacement of [3H]DADLE from human delta opioid receptor expressed in CHO cells by liquid scintillation counting
Mu-type opioid receptor = Mu-type opioid receptor (Homo sapiens, UniProt P35372); test: Displacement of [3H]DAMGO from human mu opioid receptor expressed in CHO cells by liquid scintillation counting
[2] = biological target: Kappa-type opioid receptor (Homo sapiens, UniProt P41145); test: Displacement of [3H]U69,593 from human kappa opioid receptor expressed in CHO cells by liquid scintillation counting

Sequences of proteins named here, by UniProt entry; tags and fusion partners are left off. A change or cut given only in a name is not applied to a line headed by its entry.
UniProt P41143, whole entry: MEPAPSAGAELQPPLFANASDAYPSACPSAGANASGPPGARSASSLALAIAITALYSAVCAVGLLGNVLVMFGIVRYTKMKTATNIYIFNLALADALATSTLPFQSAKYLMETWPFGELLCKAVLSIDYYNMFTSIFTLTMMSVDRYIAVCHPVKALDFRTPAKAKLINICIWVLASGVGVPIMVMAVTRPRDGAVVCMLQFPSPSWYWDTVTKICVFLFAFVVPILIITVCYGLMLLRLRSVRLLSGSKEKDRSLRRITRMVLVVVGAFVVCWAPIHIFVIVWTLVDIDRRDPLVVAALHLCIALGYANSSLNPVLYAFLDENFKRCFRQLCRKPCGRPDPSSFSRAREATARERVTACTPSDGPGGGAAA
UniProt P35372, whole entry: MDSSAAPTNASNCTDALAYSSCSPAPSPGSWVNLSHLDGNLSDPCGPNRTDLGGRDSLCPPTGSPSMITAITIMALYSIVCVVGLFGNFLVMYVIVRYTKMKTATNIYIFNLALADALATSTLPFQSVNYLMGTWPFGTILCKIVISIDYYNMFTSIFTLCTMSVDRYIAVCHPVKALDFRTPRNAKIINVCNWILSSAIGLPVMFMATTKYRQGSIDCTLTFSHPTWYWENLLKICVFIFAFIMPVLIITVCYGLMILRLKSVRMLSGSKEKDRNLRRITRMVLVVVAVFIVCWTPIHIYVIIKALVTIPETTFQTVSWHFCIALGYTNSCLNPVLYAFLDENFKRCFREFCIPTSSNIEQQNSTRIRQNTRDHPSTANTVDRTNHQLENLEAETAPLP
UniProt P41145: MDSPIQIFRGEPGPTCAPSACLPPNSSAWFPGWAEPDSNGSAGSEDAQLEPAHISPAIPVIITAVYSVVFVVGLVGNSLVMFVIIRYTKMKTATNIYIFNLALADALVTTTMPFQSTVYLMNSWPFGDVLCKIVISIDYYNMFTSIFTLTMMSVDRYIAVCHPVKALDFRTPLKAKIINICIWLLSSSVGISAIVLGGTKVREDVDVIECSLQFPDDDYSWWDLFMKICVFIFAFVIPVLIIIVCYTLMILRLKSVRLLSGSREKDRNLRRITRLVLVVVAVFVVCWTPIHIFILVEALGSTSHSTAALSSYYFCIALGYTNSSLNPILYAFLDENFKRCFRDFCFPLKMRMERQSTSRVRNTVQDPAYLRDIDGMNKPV

SMILES: Oc1ccc2c3c1O[C@H]1[C@H](O)CC[C@@]4(O)[C@@H](C2)N(CC2CC2)CC[C@]314
- Ki [1]: 213 nM
- Ki (Mu-type opioid receptor): 2.12 nM
- Ki [2]: 7.42 nM
